Laboratory results reported in PubChem BioAssay AID492947 (National Center for Advancing Translational Sciences (NCATS), 2010).
This is a selection; strong and weak results do not stand in their true shares. The source made the active and inactive calls. Calls come from the whole dose curve; as a rule, active = well fitted activation curve with a large enough effect; inconclusive = small, poorly fitted or top-dose-only effect; inactive = flat fitted curve, though single readings scatter.

By UniProt entry, the sequences of proteins in these tests, tags left out.
UniProt P07550, whole entry: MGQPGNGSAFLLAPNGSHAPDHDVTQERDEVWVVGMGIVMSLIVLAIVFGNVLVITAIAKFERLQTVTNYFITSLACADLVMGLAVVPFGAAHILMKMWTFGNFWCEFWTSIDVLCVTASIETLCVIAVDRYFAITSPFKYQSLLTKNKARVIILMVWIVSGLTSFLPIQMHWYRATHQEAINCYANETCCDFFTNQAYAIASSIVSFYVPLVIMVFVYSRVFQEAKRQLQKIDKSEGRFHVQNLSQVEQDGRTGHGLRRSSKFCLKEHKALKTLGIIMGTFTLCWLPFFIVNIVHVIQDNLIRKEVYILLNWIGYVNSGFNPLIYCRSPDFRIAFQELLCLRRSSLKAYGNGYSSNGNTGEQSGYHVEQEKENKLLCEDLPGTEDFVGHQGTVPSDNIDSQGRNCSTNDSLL

The molecules below were run against Beta-2 adrenergic receptor (Homo sapiens) (UniProt P07550) (assay: qHTS assay of beta-arrestin-biased ligands of beta2-adrenergic receptor). Details: beta-arrestin recruitment to beta2AR, cell-based reporter; at 46.1 µM (top of the series).
Excerpt: NIH Molecular Libraries Probe Production Network [MLPCN]
NIH Chemical Genomics Center [NCGC]
PI: Bryan Roth and Bob Lefkowitz
The concept of biased agonism is an emerging concept of molecular pharmacology which proposes that seven transmembrane receptors (7TMRs) or G protein-coupled receptors (GPCRs), exist in multiple signaling conformations and complexes and that ligands (either agonists or antagonists) can induce signaling biased responses for distinct signal transduction cascades.
Furthermore, accumulating evidence over the last decade has drawn attention to a novel function of beta-arrestins as signal transducers that scaffold various signaling molecules upon activation of 7TMRs. […] This beta-arrestin-biased signaling presumably leads to distinct physiological outcomes from those by G protein activation.
Additionally, the active receptor conformations which […] on this beta-arrestin signaling are likely different from those activating G protein signaling
The goal of this screening project will be to discover and optimize novel beta-arrestin-biased ligands for beta2-AR signaling. A luminescent cell-based assay for beta2-AR-mediated agonism, known as the Tango assay, has been validated in which ligand binding of a recombinant beta2-AR and subsequent recruitment of a recombinant beta-arrestin lead to the release of the transcriptional activator tTA, which upregulates transcription of a tTA-responsive luciferase gene. […] Compounds were screened as a concentration-titration series that ranged from 46 microM to 0.6 nM.
NCGC Assay Protocol Summary:
Tango cells were dispensed into white, solid, tissue-culture-treated 1536-well plates at 1500 cells/well in DMEM, containing 1% fetal bovine serum (FBS). Then, 23 nL of compounds or DMSO were delivered to each well using a pin tool. Plates were incubated at 37 degrees C, 5% CO2 for 18 hr. Then 2.5 uL luminescent substrate mix (in-house prepared: 150 mM Tris-Cl, pH 7.6, 3 mM MgCl2, 1% Triton X-100, 5 mM DTT, 0.5 mM CoA, 0.15 mM ATP, 0.44 mM D-luciferin, final concentrations) was added to each well. Plates were then incubated for 15 minutes at room temperature, and subsequently measured on a ViewLux plate reader for luminescent signal using a clear filter with a 10 second exposure and 2x binning. The %Activity was determined from the corrected luminescence values.
Concentration-response curves were fitted to the signals arising from the resulting luminescence. The concentration-effect curves were then classified based on curve quality (r2), response magnitude and degree of measured activity, and compounds were subsequently categorized based on their curve class.
Keywords: biased agonism, beta2-AR, beta-arrestin, GPCR, 7TMR, Tango, luminescence, MLSMR, MLPCN, NIH Roadmap, qHTS, NCGC
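Note: 0% = DMSO controls and full agonism = EC100 isoproterenol or metaproterenol; nearly all actives have a fitted effect of over 65% in size.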

SMILES	activation
CCN(CC)CC(O)COC(=O)C(O)(c1ccccc1)C1CCCCC1 (stereo not given)	inactive: -0.502%
COc1ccc(OP(C)(=O)Nc2ccc(Br)cc2)cc1 (stereo not given)	inactive: -0.0449%
COc1ccccc1OP(C)(=O)Nc1c(C)n(C)n(-c2ccccc2)c1=O (stereo not given)	inactive: 0.353%
O=C(OCCCN1CCCC1)C(O)(c1ccccc1)C1CCCCC1 (stereo not given)	inactive: -0.394%
CP(=O)(Oc1ccccc1)N1CCOC1=O (stereo not given)	inactive: -0.582%
CCc1ccc(OP(C)(=O)Nc2cccnc2)cc1 (stereo not given)	inactive: -0.0675%
CC(C)(C)c1ccc(OP(C)(=O)O)cc1	inactive: -0.306%
COc1ccccc1OP(C)(=O)Nc1ccccc1Br (stereo not given)	inactive: -0.207%
CP(=O)(Nc1ccc(Cl)cc1)Oc1ccc(F)cc1 (stereo not given)	inactive: -0.617%
CN(C)C(=O)c1c([N+](=O)[O-])cc([N+](=O)[O-])cc1[N+](=O)[O-]	inactive: -0.119%
CCOC(=O)c1ccc(NP(C)(=O)Oc2ccc(Cl)cc2)cc1 (stereo not given)	inactive: -0.474%
CP(=O)(OC12CC3CC(CC(C3)C1)C2)OC12CC3CC(CC(C3)C1)C2	inactive: 0.179%
Cc1cc(C)cc(OP(C)(=O)Nc2cccc(C(F)(F)F)c2)c1 (stereo not given)	inactive: 0.843%
COc1ccccc1OP(C)(=O)Nc1ccc(C)c(C)c1 (stereo not given)	inactive: -0.701%
COc1ccc(OP(C)(=O)Nc2ccccc2Br)cc1 (stereo not given)	inactive: -0.0905%
Cc1nc2ccc3ccccc3c2o1.O=[N+]([O-])c1cc([N+](=O)[O-])c(O)c([N+](=O)[O-])c1	inactive: -0.0593%
CP(=O)(OCCOc1ccccc1)OCCOc1ccccc1	inactive: 0.118%
CP(=O)(Nc1ccc(Cl)cc1Cl)Oc1ccccc1 (stereo not given)	inactive: -0.107%
COc1ccccc1OP(C)(=O)Nc1ccc(Br)cc1 (stereo not given)	inactive: -0.614%
COc1ccc(OP(C)(=O)Nc2ccccn2)cc1 (stereo not given)	inactive: 0.219%
CN(C)CCOC(=O)C(O)(c1ccccc1)C1CCCC1 (stereo not given)	inactive: -0.155%
O=[N+]([O-])c1cc([N+](=O)[O-])c(Nc2ccccn2)c([N+](=O)[O-])c1	inactive: -0.603%
Cc1c(NP(C)(=O)Oc2ccc(C(C)C)cc2)c(=O)n(-c2ccccc2)n1C (stereo not given)	inactive: -0.485%
CP(=O)(Nc1ccccn1)Oc1ccccc1 (stereo not given)	inactive: -0.127%
COc1ccccc1OP(C)(=O)Nc1ccc(C)cc1C (stereo not given)	inactive: 0.288%
CCc1ccc(OP(C)(=O)O)cc1	inactive: -0.153%
CP(=O)(Nc1ccccc1F)Oc1ccccc1 (stereo not given)	inactive: -0.156%

SMILES	activation
CC(C)c1ccc(OP(C)(=O)Nc2ccc(SC(F)(F)F)cc2)cc1 (stereo not given)	inactive: 0.448%
O=C(OCCN1CCN(CCOCc2ccccc2)CC1)C(O)(c1ccccc1)c1ccccc1	inactive: -1.68%
CCOC(=O)c1ccc(NP(C)(=O)Oc2ccc(F)cc2)cc1 (stereo not given)	inactive: 4.87%
COc1ccc(OP(C)(=O)Nc2ccc(SC(F)(F)F)cc2)cc1 (stereo not given)	inactive: 0.111%
CCN(CC)CCCOC(=O)C(O)(c1ccccc1)C1CCCCC1 (stereo not given)	inactive: -0.44%
CP(=O)(Nc1ccccc1)Oc1ccc(F)cc1 (stereo not given)	inactive: 5.15%
CCCCCOc1ccc(NP(C)(=O)Oc2ccc(Cl)cc2Cl)cc1 (stereo not given)	inactive: -0.115%
COc1ccc(OP(C)(=O)Nc2cccc(Br)c2)cc1 (stereo not given)	inactive: -0.227%
CN(C)CCOC(=O)C(O)(c1ccccc1)C1CCCCC1 (stereo not given)	inactive: -0.211%
COc1ccc(NP(C)(=O)Oc2ccccc2OC)cc1 (stereo not given)	inactive: 0.0486%
O=[N+]([O-])c1ccc(OP2(=O)COCCO2)cc1 (stereo not given)	inactive: 0.453%
Cc1cc(-c2cccc3ccccc23)c(C)cn1.O=[N+]([O-])c1cc([N+](=O)[O-])c(O)c([N+](=O)[O-])c1	inactive: 0.462%
CP(=O)(Nc1ccc(SC(F)(F)F)cc1)Oc1ccc(F)cc1 (stereo not given)	inactive: 0.129%
CCOP(C)(=S)SCC(=O)NC(C)(CC)C(=O)O (stereo not given)	inactive: -0.184%
CP(=O)(Nc1ccc2c(c1)OCCO2)Oc1ccccc1 (stereo not given)	inactive: -1.01%
Cc1ccccc1NP(C)(=O)Nc1ccccc1C	inactive: -0.0657%
O=[N+]([O-])c1cc([N+](=O)[O-])c(-n2nnc3ccccc32)c([N+](=O)[O-])c1	inactive: -0.006%
Cc1nc2ccc3ccccc3c2s1.O=[N+]([O-])c1cc([N+](=O)[O-])c(O)c([N+](=O)[O-])c1	inactive: 0.127%
O=[N+]([O-])c1cc([N+](=O)[O-])c(Nc2nnnn2CCO)c([N+](=O)[O-])c1	inactive: -0.0997%
CC1=C2N=C(C=C3N=C(C(C)=C4[N-][C@@](C)([C@@H]5N=C1[C@](C)(CCC(=O)NC[C@@H](C)OP(=O)([O-])O[C@H]1[C@@H](O)[C@@H](n6cnc7cc(C)c(C)cc76)O[C@@H]1CO)[C@H]5CC(N)=O)[C@@](C)(CC(N)=O)[C@@H]4CCC(N)=O)[C@@](C)(CC(N)=O)[C@@H]3CCC(N)=O)C(C)(C)[C@@H]2CCC(N)=O.[C-]#N.[Co+3]	inactive: -0.156%
COc1ccccc1OP(C)(=O)Nc1c(C)cccc1C (stereo not given)	inactive: -0.632%
CN1CCCCC1COC(=O)C1(O)c2ccccc2CCc2ccccc21 (stereo not given)	inactive: -3.04%
CP(=O)(Nc1ccc(SC(F)(F)F)cc1)Oc1ccccc1 (stereo not given)	inactive: -2.12%
CCCOc1ccc(NP(C)(=O)Oc2ccc(Cl)cc2)cc1 (stereo not given)	inactive: 0.0045%
CC1=NCCc2c1[nH]c1ccccc21.O=[N+]([O-])c1cc([N+](=O)[O-])c(O)c([N+](=O)[O-])c1	inactive: -0.475%
COc1ccccc1OP(C)(=O)Nc1cccc(Br)c1 (stereo not given)	inactive: 0.129%
CCOC(=O)c1ccc(NP(C)(=O)Oc2cc(C)cc(C)c2)cc1 (stereo not given)	inactive: -0.406%

SMILES	activation
Cc1cc(C)cc(OP(C)(=O)Nc2ccc(C)cc2C)c1 (stereo not given)	inactive: -0.0389%
Cc1ccc(C)c(NP(C)(=O)Oc2ccccc2)c1 (stereo not given)	inactive: -0.147%
CP(=O)(Nc1cccc(Br)c1)Oc1ccccc1 (stereo not given)	inactive: -0.0978%
Cc1cc(C)cc(OP(C)(=O)Nc2ccccn2)c1 (stereo not given)	inactive: -0.174%
CCN(CC)CCCOC(=O)C(O)(c1ccccc1)c1ccccc1	inactive: 0.258%
O=[N+]([O-])c1cc([N+](=O)[O-])c(Nc2cccnc2)c([N+](=O)[O-])c1	inactive: 0.344%
O=[N+]([O-])c1ccc2c(c1)C=Nc1ccccc1O2	inactive: 0.0216%
CC(C)(C)c1ccc(OP(C)(=O)Nc2ccc(SC(F)(F)F)cc2)cc1 (stereo not given)	inactive: -0.901%
Cc1cccc(C)c1OP(C)(N)=O (stereo not given)	inactive: -0.406%
COc1ccccc1OP(C)(=O)Nc1ccc(C)cc1 (stereo not given)	inactive: -2.11%
Cc1ccc(NP(C)(=O)Oc2ccccc2)c(C)c1 (stereo not given)	inactive: -0.11%
CCOC(=O)c1ccc(NP(C)(=O)Oc2ccccc2)cc1 (stereo not given)	inactive: 3.47%
Cc1cc(C)cc(OP(C)(N)=O)c1 (stereo not given)	inactive: -0.217%
COc1ccccc1OP(C)(=O)Nc1cc(Cl)ccc1C (stereo not given)	inactive: 0.24%
COc1ccc(OP(C)(=O)Nc2cccc(F)c2)cc1 (stereo not given)	inactive: -0.662%
CP(=S)(Nn1cnnc1)Oc1ccccc1 (stereo not given)	inactive: 0.0044%
CP(=O)(Nc1ccccc1Br)Oc1ccccc1 (stereo not given)	inactive: -0.62%
COc1ccccc1OP(C)(=O)Nc1ccccc1 (stereo not given)	inactive: -0.0718%
Cc1cccc(C)c1OP(C)(=O)Nc1ccc(SC(F)(F)F)cc1 (stereo not given)	inactive: -0.443%
CP(=O)(Nc1ccc(SC(F)(F)F)cc1)Oc1ccc(Cl)cc1 (stereo not given)	inactive: -1.36%
CP(=O)(Oc1ccccc1)OC(c1ccccc1)C(F)(F)F (stereo not given)	inactive: -0.0234%
CCc1ccc(OP(C)(=O)N2CCN(c3ccc([N+](=O)[O-])cc3)CC2)cc1 (stereo not given)	inactive: 0.223%
CP(=O)(NC(=O)Nc1ccccc1)Oc1ccccc1 (stereo not given)	inactive: -0.109%
Cc1cc(C)cc(OP(C)(=O)Nc2ccc(SC(F)(F)F)cc2)c1 (stereo not given)	inactive: 0.133%
CCOC(=O)c1ccc(NP(C)(=O)Oc2ccc(OC)cc2)cc1 (stereo not given)	inactive: -0.097%
CCOP(C)(=S)SCC(=O)NC(C)C(=O)O (stereo not given)	inactive: -0.608%
